Data published in publication PMC11653428, “5‐methyl‐2‐carboxamidepyrrole‐based novel dual mPGES‐1/sEH inhibitors as promising anticancer candidates” (Archiv Der Pharmazie, 2024).

Molecular target: T1, mPGES-1 (Homo sapiens, UniProt O14684)
T1 construct: endogenous in cells; host or cells: A549 cells stimulated with IL-1β; microsomal fraction
T1 sequence (O14684 1-152): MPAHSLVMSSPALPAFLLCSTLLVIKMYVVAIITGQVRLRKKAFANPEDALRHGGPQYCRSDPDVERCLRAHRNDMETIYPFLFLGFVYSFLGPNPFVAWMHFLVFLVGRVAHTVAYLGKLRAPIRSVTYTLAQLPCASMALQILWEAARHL
Test: Cell-free mPGES-1 activity assay (microsomes of IL-1β-stimulated A549 cells, PGE2 formation by RP-HPLC)
Assay type: biochemical
Settings: compound at 10 μM; percentage of vehicle control (DMSO) = 100%, n = 3
Protocol: Compounds 1a–f and 2a–d were submitted to a cell‐free assay mPGES‐1^[ [52] ^] to validate the inhibitory activity predicted in silico. All the compounds were screened at two different concentrations (10 and 1 µM), with the aim of identifying the candidates able to induce a significant inhibition of PGE2 formation. […] Also, compound 1b led to ~55% residual mPGES‐1 activity at 10 µM. Unfortunately, compound 1d could not be analyzed due to unspecific interference of the compound with the assay.
Microsomes of A549 cells containing mPGES‐1 were used as enzyme sources. In brief, A549 cells were stimulated with interleukin‐1β (IL‐1β) (2 ng/mL) for 48 h, harvested, and sonicated. The lysate was first centrifugated at 10,000g (10 min), and then at 174,000g for (1 h) at 4°C. The pellet (microsomal fraction) was resuspended in 1 ml homogenization buffer (0.1 M potassium phosphate buffer, pH = 7.4, 1 mM phenylmethanesulfonyl fluoride, 60 µg/mL soybean trypsin inhibitor, 1 µg/mL leupeptin, 2.5 mM GSH, and 250 mM sucrose), the total protein concentration was determined, and microsomes were diluted in potassium phosphate buffer (0.1 M, pH 7.4) containing GSH (2.5 mM) and seeded in a 96‐well plate. […] PGE2 and 11β‐PGE2 were extracted by solid‐phase extraction, and PGE2 formation was quantified by RP‐HPLC.^[ [52] ^] […]

Residual activity of mPGES-1, mean ± SD (%): 33.5 ± 2.1%
SMILES: CC(C)c1ccc2c(c1)c(SC(C)(C)C)c(CC(C)(C)C(=O)O)n2Cc1ccc(Cl)cc1 [MK886, reference compound]
